Amino acid sequences for entries named in this document (tags omitted).
UniProt Q9NWZ3, whole entry: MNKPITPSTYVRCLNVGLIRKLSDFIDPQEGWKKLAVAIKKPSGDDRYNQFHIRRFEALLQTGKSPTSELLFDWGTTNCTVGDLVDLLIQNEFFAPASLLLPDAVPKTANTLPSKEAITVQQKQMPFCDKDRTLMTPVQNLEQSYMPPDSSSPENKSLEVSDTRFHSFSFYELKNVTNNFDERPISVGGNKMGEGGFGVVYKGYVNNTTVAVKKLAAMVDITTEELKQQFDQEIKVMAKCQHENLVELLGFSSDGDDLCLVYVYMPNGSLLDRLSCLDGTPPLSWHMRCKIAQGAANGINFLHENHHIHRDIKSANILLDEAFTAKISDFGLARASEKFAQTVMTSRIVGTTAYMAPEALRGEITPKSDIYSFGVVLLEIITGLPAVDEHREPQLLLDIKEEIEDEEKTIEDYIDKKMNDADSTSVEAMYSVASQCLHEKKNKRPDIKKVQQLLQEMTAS

In patent US12150995B2, “IRAK degraders and uses thereof” (Kymera Therapeutics, Inc., priority 2020, dated 2024):

Molecular target: IRAK4 (Homo sapiens, UniProt Q9NWZ3)
Test: IRAK4 MSD Degradation in OCI-LY10
Conditions: read-out: IRAK4 degradation in OCI-LY10: DC50; OCI-LY10 cells, Meso Scale Discovery, incubated 4 to 24 hours
Procedure: Degradation of IRAK4 in OCI-LY10 was quantitatively measured using Meso Scale Discovery technology. OCI-LY10 cells were seeded in 96-well plates (Corning 3799) with a density of 300,000 cells per well in 100 μL fresh media. Compounds were then added to the assay plates with a final top concentration of 1 to 10 μM in a 1:3 dilution series with total of 8 doses. The assay plates were then incubated for 4 to 24 hours at 37° C. under 5% CO2. The assay plates were then centrifuged for 5 minutes and the cell pellets were treated with 100 μL/well RIPA lysis buffer (Boston BioProducts BP-115D) with proteinase inhibitors. To prepare MSD assay plates (Meso Scale Discovery Catalog number L15XA-3), the plates were coated with 2 μg/mL capture antibody (mouse Anti-IRAK4 antibody [2H9], ab119942) in PBS, at 40 μL/well. The plates were then incubated overnight at 4° C., washed 3 times with 150 μL/well TBST buffer (Cell Signaling Technology, Catalog number 9997S) and blocked with 150 μL/well blocking buffer (Meso Scale Discovery Catalog number R93BA-4). Cell lysates were then added to MSD assay plates and the plates were incubated at room temperature for 1 hour. The plates were then washed 3 times with 150 μL/well TBST buffer and […] primary detection antibody (rabbit Anti-IRAK4 antibody [Y279], from Abcam. Catalog number ab32511, 1 μg/mL). The assay plates were then incubated at room temperature for 1 hour, washed 3 times with 150 μL/well TBST buffer and 254/well secondary detection antibody, SULFO-TAG anti-rabbit antibody were added (anti rabbit antibody from Meso Scale Discovery, Catalog number R32AB-1, 1 μg/mL). The assay plates were then incubated at room temperature for 1 hour, washed 3 times with 150 μL/well TBST buffer, and 150 μL/well MSD reading buffer (Meso Scale Discovery catalog number R92TC-2) was added. The plates were then analyzed by a MSD reader (Meso Scale Discovery, Model Quick Plex SQ 120). The data was then analyzed by software Prism 7.0 from GraphPad and the dose-depended IRAK4 degradation were fit using a three-parameter logistic equation to calculate DC50.
The letter codes for IRAK4 DC50 include: A (<0.01 μM); B (0.01-0.05 μM); C (0.05-0.1 μM); D (0.1-0.2 μM); and E (>0.2 μM).

Row | SMILES | DC50
1 | COc1cc2nn([C@H]3CC[C@H](CN(C)[C@H]4CC[C@H](c5cccc6c5n(C)c(=O)n6C5CCC(=O)NC5=O)CC4)CC3)cc2cc1NC(=O)c1cnnc(C(F)(F)F)c1 (some centres unmarked) | > 200 nM
2 | COc1cc2c(cc1NC(=O)c1cccc(C(F)(F)F)n1)CN([C@H]1CC[C@H](CN3CCC(c4cccc5c4n(C)c(=O)n5C4CCC(=O)NC4=O)CC3)CC1)C2=O (some centres unmarked) | < 10 nM
3 | COc1ccc2c(c1N1CCN(C[C@H]3CC[C@H](n4cc5cc(NC(=O)c6cccc(C(F)(F)F)n6)ncc5n4)CC3)CC1)n(C)c(=O)n2C1CCC(=O)NC1=O (some centres unmarked) | < 10 nM
4 | Cc1cc2nn(C3CCC(CN4CC5CCC(C4)N5c4cccc5c4n(C)c(=O)n5C4CCC(=O)NC4=O)CC3)cc2cc1NC(=O)c1cccc(C(F)(F)F)n1 (centres unmarked) | 100 to 200 nM
5 | COc1ccc2c(c1C1CCN(C[C@H]3CC[C@H](n4cc5cc(NC(=O)c6cccc(C(F)(F)F)n6)ncc5n4)CC3)CC1)n(C)c(=O)n2[C@H]1CCC(=O)NC1=O | < 10 nM
6 | Cc1cc2nn([C@H]3CC[C@H](CN4CCN(c5cccc6c5n(C)c(=O)n6C5CCC(=O)NC5=O)CC4C)CC3)cc2cc1NC(=O)c1cccc(C(F)(F)F)n1 (some centres unmarked) | 10 to 50 nM
7 | Cn1c(=O)n(C2CCC(=O)NC2=O)c2cccc(N3CCN(C[C@H]4CC[C@H](n5cc6cc(NC(=O)c7cccc(C(F)(F)F)n7)c(N7CCOCC7)cc6n5)CC4)CC3)c21 (some centres unmarked) | 10 to 50 nM
8 | COc1cc2nn([C@H]3CC[C@H](CN4C[C@@H]5C[C@H]4CN5c4cccc5c(N6CCC(=O)NC6=O)cncc45)CC3)cc2cc1NC(=O)c1cccc(C(F)(F)F)n1 | 10 to 50 nM
9 | CC(C)(O)c1cc2nn([C@H]3CC[C@H](CN4C[C@@H]5C[C@H]4CN5c4cccc5c(N6CCC(=O)NC6=O)cncc45)CC3)cc2cc1NC(=O)c1cccc(C(F)(F)F)n1 | < 10 nM
10 | COc1cc2nn([C@H]3CC[C@H](CN(C)C4CCN(c5cccc6c5n(C)c(=O)n6C5CCC(=O)NC5=O)CC4)CC3)cc2cc1NC(=O)n1ccc2cc(C#N)cnc21 (some centres unmarked) | 10 to 50 nM
11 | CC(C)Nc1c(C(=O)N[C@H]2CC[C@H](CN3CCC(c4cccc5c(N6CCC(=O)NC6=O)cncc45)CC3)CC2)cnc2c1Oc1cc(C#N)ccc1O2 (relative stereo) | 10 to 50 nM
